Chains of the proteins cited; added tags and fusions are not shown.
UniProt Q92794, whole entry: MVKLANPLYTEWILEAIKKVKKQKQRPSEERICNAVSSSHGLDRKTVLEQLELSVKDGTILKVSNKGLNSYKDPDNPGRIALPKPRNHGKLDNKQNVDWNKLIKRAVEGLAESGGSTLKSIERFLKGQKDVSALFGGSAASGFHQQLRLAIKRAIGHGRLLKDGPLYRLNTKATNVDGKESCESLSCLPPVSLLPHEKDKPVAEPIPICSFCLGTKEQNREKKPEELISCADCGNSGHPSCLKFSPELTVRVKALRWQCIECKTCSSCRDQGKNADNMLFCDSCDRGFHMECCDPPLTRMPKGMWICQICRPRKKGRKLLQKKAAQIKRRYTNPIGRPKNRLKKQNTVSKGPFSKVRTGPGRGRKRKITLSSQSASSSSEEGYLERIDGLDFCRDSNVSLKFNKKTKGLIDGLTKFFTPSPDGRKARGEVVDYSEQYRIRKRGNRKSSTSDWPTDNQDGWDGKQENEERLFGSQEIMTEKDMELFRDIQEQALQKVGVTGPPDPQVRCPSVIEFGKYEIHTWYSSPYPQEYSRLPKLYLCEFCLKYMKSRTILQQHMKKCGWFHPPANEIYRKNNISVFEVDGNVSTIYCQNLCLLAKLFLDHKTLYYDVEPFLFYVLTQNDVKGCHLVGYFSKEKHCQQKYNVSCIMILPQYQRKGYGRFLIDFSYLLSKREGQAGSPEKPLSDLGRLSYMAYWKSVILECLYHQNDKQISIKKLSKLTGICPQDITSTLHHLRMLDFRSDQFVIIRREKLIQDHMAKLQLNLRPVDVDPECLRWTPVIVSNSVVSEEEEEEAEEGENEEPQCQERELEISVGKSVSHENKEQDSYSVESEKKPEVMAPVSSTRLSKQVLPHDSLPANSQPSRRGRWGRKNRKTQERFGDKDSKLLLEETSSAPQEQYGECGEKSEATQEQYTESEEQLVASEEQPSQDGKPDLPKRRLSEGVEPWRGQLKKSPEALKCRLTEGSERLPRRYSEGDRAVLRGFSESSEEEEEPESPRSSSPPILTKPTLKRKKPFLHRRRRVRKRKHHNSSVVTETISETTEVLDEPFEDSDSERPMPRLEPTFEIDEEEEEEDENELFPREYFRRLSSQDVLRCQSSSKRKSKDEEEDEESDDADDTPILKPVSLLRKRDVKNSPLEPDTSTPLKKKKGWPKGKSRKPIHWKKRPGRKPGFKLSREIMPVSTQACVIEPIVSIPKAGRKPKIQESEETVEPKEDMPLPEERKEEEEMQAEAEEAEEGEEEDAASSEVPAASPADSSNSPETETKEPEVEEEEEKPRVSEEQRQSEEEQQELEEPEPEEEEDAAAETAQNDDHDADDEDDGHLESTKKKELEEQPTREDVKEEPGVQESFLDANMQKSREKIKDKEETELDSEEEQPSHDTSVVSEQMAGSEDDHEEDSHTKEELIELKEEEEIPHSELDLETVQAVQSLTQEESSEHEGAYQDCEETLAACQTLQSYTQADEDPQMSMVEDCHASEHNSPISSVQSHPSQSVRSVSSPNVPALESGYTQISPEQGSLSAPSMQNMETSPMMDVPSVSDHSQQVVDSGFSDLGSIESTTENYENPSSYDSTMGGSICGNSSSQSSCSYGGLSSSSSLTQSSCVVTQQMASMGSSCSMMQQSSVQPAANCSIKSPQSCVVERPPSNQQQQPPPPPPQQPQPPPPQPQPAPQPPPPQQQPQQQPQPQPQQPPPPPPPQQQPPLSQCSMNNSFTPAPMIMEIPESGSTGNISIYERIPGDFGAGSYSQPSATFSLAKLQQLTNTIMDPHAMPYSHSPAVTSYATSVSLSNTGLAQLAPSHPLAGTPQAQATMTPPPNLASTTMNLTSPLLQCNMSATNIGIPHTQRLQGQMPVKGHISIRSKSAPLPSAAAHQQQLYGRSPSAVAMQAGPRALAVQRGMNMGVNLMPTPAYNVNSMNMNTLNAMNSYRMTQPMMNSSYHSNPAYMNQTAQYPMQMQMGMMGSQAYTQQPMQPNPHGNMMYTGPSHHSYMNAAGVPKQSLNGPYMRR

In ChEMBL document CHEMBL6092206, “Discovery and Characterization of BAY-184: A New Potent and Selective Acylsulfonamide-Benzofuran In Vivo-Active KAT6AB Inhibitor” (J Med Chem, 2024):

Biological target: Histone acetyltransferase KAT6A (Homo sapiens, UniProt Q92794)
Assay: Inhibition of his-tagged human recombinant KAT6A (194 to 810 residues) expressed in baculovirus-infected Sf9 insect cells using H4-derived peptide as substrate incubated for 40 mins in presence of AcCoA by TR-FRET assay

SMILES: COc1cc(OC)c2cc(C(=O)NS(=O)(=O)c3ccccc3-c3ccccc3)oc2c1
- IC50: 99 nM
